This note sets out measurements from patent publication US20100125053A1, “Allosteric Modulation of the Dopamine Transporter Protein for the Treatment of HIV-1 Induced Neurologic Dysfunction” (priority 2008, published 2010).

The chains behind the UniProt entries cited, without tags or fusion partners.
UniProt P23977, whole entry: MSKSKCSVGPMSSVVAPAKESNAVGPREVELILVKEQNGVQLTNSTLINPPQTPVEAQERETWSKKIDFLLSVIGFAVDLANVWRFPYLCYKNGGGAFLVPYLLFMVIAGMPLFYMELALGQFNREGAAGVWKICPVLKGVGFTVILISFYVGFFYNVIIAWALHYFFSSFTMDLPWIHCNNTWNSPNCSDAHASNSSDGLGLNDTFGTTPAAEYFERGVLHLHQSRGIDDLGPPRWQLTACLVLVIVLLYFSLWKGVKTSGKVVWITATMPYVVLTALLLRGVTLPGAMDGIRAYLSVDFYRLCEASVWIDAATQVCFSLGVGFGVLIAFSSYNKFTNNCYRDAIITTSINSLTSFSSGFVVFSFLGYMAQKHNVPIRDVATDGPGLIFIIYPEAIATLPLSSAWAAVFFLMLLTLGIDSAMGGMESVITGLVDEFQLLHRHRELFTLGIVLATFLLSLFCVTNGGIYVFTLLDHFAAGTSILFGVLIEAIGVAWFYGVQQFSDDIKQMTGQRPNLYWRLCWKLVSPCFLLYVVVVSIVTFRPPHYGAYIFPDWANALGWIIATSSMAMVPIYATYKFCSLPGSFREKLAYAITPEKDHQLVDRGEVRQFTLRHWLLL

The structures appear in SMILES notation.

The experiment has as its target T1, DAT protein (Rattus norvegicus, UniProt P23977).
T1 construct: from tissue; host or cells: striatal synaptosomes from adult male Sprague-Dawley rats
The conditions noted are these: read-out: Kd value of the radioligand for [3H]GBR 12935 binding.

In general, Kd refers to the concentration at which binding is half-saturated. On to `c1ccc(CCCN2CCN(CCOC(c3ccccc3)c3ccccc3)CC2)cc1` [[^3H]GBR 12935, GBR 12935 [propylene-2,3-^3H]], for which the Kd was determined as 1.5 nM.
